# From patent US20170216452A1, “ANTIBODIES AND ANTIBODY FRAGMENTS FOR SITE-SPECIFIC CONJUGATION” (Pfizer Inc., priority 2015, published 2017)
# Amino acid sequences for entries named in this document (tags omitted). Residues count along the entry.
# UniProt P55899, 24-297 limits assumed: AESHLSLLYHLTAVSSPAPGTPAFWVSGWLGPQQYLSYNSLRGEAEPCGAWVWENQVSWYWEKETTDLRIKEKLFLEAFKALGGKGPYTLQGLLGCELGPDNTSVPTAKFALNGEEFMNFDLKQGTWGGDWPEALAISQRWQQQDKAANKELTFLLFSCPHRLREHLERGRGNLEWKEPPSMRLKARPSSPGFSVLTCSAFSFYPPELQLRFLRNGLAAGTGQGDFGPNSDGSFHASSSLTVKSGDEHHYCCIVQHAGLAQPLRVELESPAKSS
# Legend:
# [1] = test system: N87 cell line xenograft tumors; assay: Bystander effect, immunohistocytochemistry (pHH3, human IgG) of N87 xenograft tumors; assay type: in vivo, mouse; settings: single dose T-DM1 6 mg/kg or T-vc0101 3 mg/kg, tumors harvested 96 hours later
# Text: The ability of a released ADC payload to kill neighboring cells is known as the bystander effect. […] Tumor sections were stained for human IgG to detect ADC bound to tumor cells and phosphhistone H3 (pHH3) to detect mitotic cells as readout of the proposed mechanism of action for the payloads of both ADCs.
# ADC is detected in the periphery of the tumors in both cases.
# [2] = test system: N87-T-DM1 cells (Mouse #7, #17, #2); assay: Cytotoxicity studies (CellTiter Glo, 96 h) on cells relapsed from T-DM1 treatment in vivo; assay type: cell-based; settings: N87-T-DM1 cells compared to parental
# Experimental: Cells were incubated for 96 hours in a humidified 37° C./5% CO2 incubator.
# N87 cells = settings: parental N87 cells
# MDA-MB-175-VII cells = assay: In vitro cytotoxicity assay (MTS, 4 days); assay type: cell-based; settings: MDA-MB-175-VII cells (1+ Her2 expression); antibody concentration
# human FcRn = human FcRn (Homo sapiens, UniProt P55899); assay: BIAcore steady-state binding to human FcRn; settings: steady-state affinity, pH 6.0; read-out: KD [nM] Experiment 2
# [3] = test system: MDA-MB-361-DYT2 and MDA-MB-453 cells; assay: In vitro cytotoxicity assay (MTS, 4 days); assay type: cell-based; settings: cells with 2++ level Her2 expression: MDA-MB-361-DYT2 and MDA-MB-453
Substance,bystander effect [1],sensitivity of T-DM1 resistant cells generated in vivo [2],IC50 (N87 cells; antibody concentration),IC50 (N87 cells; payload concentration),in vitro cytotoxicity IC50 (MDA-MB-175-VII cells),Kd (human FcRn),in vitro cytotoxicity IC50 [3]
"T-vc0101: trastuzumab conventionally conjugated, vc linker, payload 0101",able to elicit a strong bystander effect,sensitive,–,–,–,–,–
T-DM1,–,–,62 ng/mL,1.7 nM,3626 ng/mL,501 nM,38 to 40 ng/mL

# Read-outs that look alike come from different tables or passages of the source.
